Experimental data from ChEMBL document CHEMBL1130129, “Immunologically specific activation of a cephalosporin derivative of mitomycin C by monoclonal antibody beta-lactamase conjugates” (J Med Chem, 1997).

Test: Ratio of kinetic constants for hydrolysis by beta-lactamase from Enterobacter cloacae P99 (kcat/Km)
Design: unit not given here
Method in brief: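 Purified E. cloacae β-lactamase (0.1 µg/mL) added to prodrug in PBS pH 7.2 containing 12.5 µg/mL bovine serum albumin, 23 °C; β-lactam hydrolysis followed by loss of absorbance at 260 nm. Initial velocities taken from linear portions of absorbance-time plots and used to derive kinetic constants.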

Ratio: 6.1
Compound: COc1cccc2c1C(=O)c1c(O)c3c(c(O)c1C2=O)C[C@@](O)(C(=O)CO)C[C@@H]3OC1CC(NC(=O)OCC2=C(C(=O)O)N3C(=O)[C@@H](NC(=O)Cc4ccccc4)[C@H]3SC2)C(O)C(C)O1 (stereo partly specified)
